Several values for one entry are separate records, joined by “and”; a condition that tells them apart may be missing. Identical values can stand only once. Like-named read-outs stand apart in the source and are kept apart here.
Experiments:
[1] = target: SOCS2^32-198-EloB/C (human) (UniProt O14508); assay: ITC; 298 K; typically 240 μM peptide titrated into 30 μM SOCS-EloB/C; 25 mM Hepes pH 7.5, 150 mM NaCl, 2 mM TCEP; single-site fit
[2] = target: SOCS2^32-198-EloB/C (human) (UniProt O14508); assay: as above; remark: listed apart in the source
[3] = target: SOCS2-Elo B/C + GHR pY595 (UniProt O14508); assay: ITC; 298 K, Microcal ITC200; 25 mM Hepes pH 7.5, 150 mM NaCl, 2 mM TCEP; typically 12 x 3.25 µL of 240 µM peptide (syringe) into 30 µM SOCS-EloB/C (cell); where a second peptide or Cullin5 NTD stands in the cell the protein was with it beforehand (25 µM SOCS2-EloB/C pre-incubated with 60 µM F3); single-site fit
[4] = target: SOCS2^32-198-EloB/C (human) (UniProt O14508); assay: as above
[5] = target: SOCS2^32-198-EloB/C (human) (UniProt O14508); assay: as above; remark: listed apart in the source
CIS-Elo B/C (human) = CIS-Elo B/C (human) (UniProt Q9NSE2); assay: as above
CIS-Elo B/C + F3 (human) = CIS-Elo B/C + F3 (human) (UniProt Q9NSE2); assay: as above

Substance | Ka [3] [M⁻¹] | Kd [3] [nM] | stoichiometry N [3] | Kd [4] | Kd [5] | further results
F3 peptide D9A | – | – | – | – | – | Kd [1]: 3.18 µM
three unique non-phosphorylated peptides | – | – | – | – | – | Kd [2]: 1.68 to 19.3 µM
E11 peptide | 4.69e+06 | 210 | 0.791 | 2.59 µM and 5.75 µM | 4.17 µM | Ka [4]: 386000 M⁻¹ and 174000 M⁻¹; stoichiometry N [4]: 0.578 and 0.828
JAK3 pY980/981 peptide | – | – | – | – | – | Kd (CIS-Elo B/C (human)): 800 nM; Ka (CIS-Elo B/C + F3 (human)): 1.99e+07 M⁻¹; Kd (CIS-Elo B/C + F3 (human)): 50 nM; stoichiometry N (CIS-Elo B/C + F3 (human)): 0.634
F3 D9A peptide | – | – | – | – | 3.39 µM and 2.96 µM | Ka [5]: 311000 M⁻¹ and 341000 M⁻¹; stoichiometry N [5]: 0.78 and 0.79
C4 peptide | 1.08e+06 | 930 | 0.834 | 32.6 µM and 6.02 µM | 19.3 µM | –
